Data reported in PubChem BioAssay AID588405 (Sanford-Burnham Center for Chemical Genomics, 2011).
Only a part is listed here, and it is no random draw. Some salts and complexes are drawn in separate pieces, as the source files them; their charges need not balance. Calls of active or inactive are those of the source.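 Rule for the calls: active = inhibition of at least 50% at 20 µM; inactive = the rest.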

assay: Peg3 promoter-driven luciferase inhibitors, primary screen, cell-based, HeLa, luciferase luminescence (AID 588405); settings: HeLa PEG-Prom luciferase reporter, overnight, at 20 µM, hits give high values

| Compound | inhibition |
| --- | --- |
| CCN(CC)CCCOC(=O)C(O)(c1ccccc1)c1ccccc1 | inactive: 11.8% |
| Cc1cc(C)cc(OP(C)(N)=O)c1 (configuration not stated) | inactive: 0.16% |
| COc1ccccc1OP(C)(=O)Nc1cc(Cl)ccc1C (configuration not stated) | inactive: 12.7% |
| COc1ccc(OP(C)(=O)Nc2cccc(F)c2)cc1 (configuration not stated) | inactive: 2.85% |
| COc1ccccc1OP(C)(=O)Nc1ccc(C)cc1 (configuration not stated) | inactive: 14.3% |
| Cc1ccc(NP(C)(=O)Oc2ccccc2)c(C)c1 (configuration not stated) | inactive: 22.8% |
| CCOC(=O)c1ccc(NP(C)(=O)Oc2ccccc2)cc1 (configuration not stated) | inactive: 0.39% |
| O=[N+]([O-])c1ccc2c(c1)C=Nc1ccccc1O2 | inactive: 18.1% |
| CC(C)(C)c1ccc(OP(C)(=O)Nc2ccc(SC(F)(F)F)cc2)cc1 (configuration not stated) | inactive: 19.7% |
| Cc1cccc(C)c1OP(C)(N)=O (configuration not stated) | inactive: 16.1% |
| O=[N+]([O-])c1cc([N+](=O)[O-])c(Nc2cccnc2)c([N+](=O)[O-])c1 | inactive: 30.3% |
| CP(=O)(Nc1ccccc1Br)Oc1ccccc1 (configuration not stated) | inactive: -11.7% |
| COc1ccccc1OP(C)(=O)Nc1ccccc1 (configuration not stated) | inactive: 3.88% |
| CP(=S)(Nn1cnnc1)Oc1ccccc1 (configuration not stated) | inactive: -1.15% |
| CP(=O)(Nc1ccccn1)Oc1ccc(Cl)cc1 (configuration not stated) | inactive: 21.1% |
| CCOC(=O)c1ccc(NP(C)(=O)Oc2ccc(OC)cc2)cc1 (configuration not stated) | inactive: 9.44% |
| O=[N+]([O-])c1cc([N+](=O)[O-])c(O)c([N+](=O)[O-])c1.c1ccc(Oc2ccncc2)cc1 | inactive: 6.87% |
| CCOP(C)(=S)SCC(=O)NC(C)C(=O)O (configuration not stated) | inactive: 20.7% |
| CP(=O)(NC(=O)Nc1ccccc1)Oc1ccccc1 (configuration not stated) | inactive: 8.98% |
| CCc1ccc(OP(C)(=O)N2CCN(c3ccc([N+](=O)[O-])cc3)CC2)cc1 (configuration not stated) | inactive: 31.6% |
| Cc1cc(C)cc(OP(C)(=O)Nc2ccc(SC(F)(F)F)cc2)c1 (configuration not stated) | inactive: 22.5% |
| Cc1cccc(C)c1OP(C)(=O)Nc1ccc(SC(F)(F)F)cc1 (configuration not stated) | inactive: -71.5% |
| Cc1ccc(Nc2c([N+](=O)[O-])cc([N+](=O)[O-])cc2[N+](=O)[O-])cc1 | inactive: 15.4% |
| CP(=O)(Nc1ccc(SC(F)(F)F)cc1)Oc1ccc(Cl)cc1 (configuration not stated) | inactive: 22.1% |

| Compound | inhibition |
| --- | --- |
| CP(=O)(Oc1ccccc1)OC(c1ccccc1)C(F)(F)F (configuration not stated) | inactive: 6.61% |
| Cc1nc2ccc3ccccc3c2s1.O=[N+]([O-])c1cc([N+](=O)[O-])c(O)c([N+](=O)[O-])c1 | inactive: -0.88% |
| O=[N+]([O-])c1cc([N+](=O)[O-])c(-c2cnn(-c3ccccc3)c2)c([N+](=O)[O-])c1 | inactive: 13.9% |
| CN(Cc1cccnc1)C(=O)COc1ccc(Cl)c(Cl)c1.O=[N+]([O-])c1cc([N+](=O)[O-])c(O)c([N+](=O)[O-])c1 | inactive: -8.75% |
| O=[N+]([O-])c1cc([N+](=O)[O-])c(-n2nnc3ccccc32)c([N+](=O)[O-])c1 | inactive: -6.65% |
| CCCOc1ccc(NP(C)(=O)Oc2ccc(Cl)cc2)cc1 (configuration not stated) | inactive: 19.3% |
| CP(=O)(Nc1ccc(SC(F)(F)F)cc1)Oc1ccccc1 (configuration not stated) | inactive: 19.2% |
| COc1ccccc1OP(C)(=O)Nc1c(C)cccc1C (configuration not stated) | inactive: 8.19% |
| CN1CCCCC1COC(=O)C1(O)c2ccccc2CCc2ccccc21 (configuration not stated) | inactive: 8.78% |
| CC1=C2N=C(C=C3N=C(C(C)=C4[N-][C@@](C)([C@@H]5N=C1[C@](C)(CCC(=O)NC[C@@H](C)OP(=O)([O-])O[C@H]1[C@@H](O)[C@@H](n6cnc7cc(C)c(C)cc76)O[C@@H]1CO)[C@H]5CC(N)=O)[C@@](C)(CC(N)=O)[C@@H]4CCC(N)=O)[C@@](C)(CC(N)=O)[C@@H]3CCC(N)=O)C(C)(C)[C@@H]2CCC(N)=O.[C-]#N.[Co+3] | inactive: -17.3% |
| O=[N+]([O-])c1cc([N+](=O)[O-])c(Nc2nnnn2CCO)c([N+](=O)[O-])c1 | inactive: -9.91% |
| CCOC(=O)C(CC)C1=NC(C)(C)Cc2ccccc21.O=[N+]([O-])c1cc([N+](=O)[O-])c(O)c([N+](=O)[O-])c1 (configuration not stated) | inactive: 19.1% |
| CC1=NCCc2c1[nH]c1ccccc21.O=[N+]([O-])c1cc([N+](=O)[O-])c(O)c([N+](=O)[O-])c1 | inactive: -8.9% |
| O=C(O)c1cccc(Nc2c([N+](=O)[O-])cc([N+](=O)[O-])cc2[N+](=O)[O-])c1 | inactive: -0.56% |
| Cc1ccc(C)c(NP(C)(=O)Oc2ccccc2)c1 (configuration not stated) | inactive: 10.9% |
| Cc1cc(C)cc(OP(C)(=O)Nc2ccccn2)c1 (configuration not stated) | inactive: 8.13% |
| CP(=O)(Nc1cccc(Br)c1)Oc1ccccc1 (configuration not stated) | inactive: 8.69% |
| CCOC(=O)c1ccc(NP(C)(=O)Oc2cc(C)cc(C)c2)cc1 (configuration not stated) | inactive: 19.2% |
| Cc1cc(C)cc(OP(C)(=O)Nc2ccc(C)cc2C)c1 (configuration not stated) | inactive: 20.6% |
| COc1ccccc1OP(C)(=O)Nc1cccc(Br)c1 (configuration not stated) | inactive: 5.69% |
| COc1ccc2c(c1O)-c1c(O)c(OC)cc3c1[C@H](C2)[N+](C)(C)CC3.O=[N+]([O-])c1cc([N+](=O)[O-])c([O-])c([N+](=O)[O-])c1[O-] | inactive: 2.14% |
| O=C(OC1CN2CCC1CC2)c1ccc([N+](=O)[O-])cc1 (configuration not stated) | inactive: 7.98% |
| O=C(OCCN1CCN(CCOCc2ccccc2)CC1)C(O)(c1ccccc1)c1ccccc1 | inactive: 1.48% |
